Here are results for one compound from paper PMC6104608, “Design, synthesis, and evaluation of curcumin analogues as potential inhibitors of bacterial sialidase” (Journal of Enzyme Inhibition and Medicinal Chemistry, 2018).

The chains behind the UniProt entries cited, without tags or fusion partners. Residues count along the entry.
UniProt P62575, 319-822 limits assumed: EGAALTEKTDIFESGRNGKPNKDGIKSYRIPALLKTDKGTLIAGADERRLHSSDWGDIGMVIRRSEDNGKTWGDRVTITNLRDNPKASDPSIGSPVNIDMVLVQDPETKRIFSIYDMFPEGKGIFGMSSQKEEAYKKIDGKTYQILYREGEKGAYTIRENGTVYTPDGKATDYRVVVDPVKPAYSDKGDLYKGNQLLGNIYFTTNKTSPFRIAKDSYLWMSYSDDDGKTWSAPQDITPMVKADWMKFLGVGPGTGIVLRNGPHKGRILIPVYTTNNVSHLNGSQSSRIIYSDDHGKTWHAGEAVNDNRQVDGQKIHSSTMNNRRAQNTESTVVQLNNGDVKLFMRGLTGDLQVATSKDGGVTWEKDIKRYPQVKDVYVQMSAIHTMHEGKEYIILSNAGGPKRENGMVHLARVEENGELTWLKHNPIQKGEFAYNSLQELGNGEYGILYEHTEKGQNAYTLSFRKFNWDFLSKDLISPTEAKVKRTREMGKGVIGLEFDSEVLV

The target in the assay is T1, S. pneumoniae Nan A (Streptococcus pneumoniae, UniProt P62575).
T1 construct: 6x His-tag (C); made in house; host or cells: E. coli BL21 (DE3)
Kind of assay: Fluorescence-based inhibition assay of S. pneumoniae Nan A with MUNANA substrate. It counts as biochemical. Conditions: control used to confirm hydrolytic activity of Nan A; value printed with citation [12]; read-out: IC50 of DANA, S. pneumoniae sialidase inhibition.

For orientation: IC50 means the concentration at which inhibition is half-maximal.

`CC(=O)N[C@H]1[C@H]([C@H](O)[C@H](O)CO)OC(C(=O)O)=C[C@@H]1O` [DANA, reference compound]: the IC50 stood at 4.8 ± 1.1 µM.
